What was measured:
[1] = test system: mouse Yoshida ascites sarcoma cells; settings: cited from earlier work; for In vitro activities: Cytotoxicity: cu = cytostatic units, Yoshida ascites sarcoma cells, Brock, 1976
[2] = test system: Yoshida ascites sarcoma; settings: cited from earlier work; for In vivo activities: CD50: curative dose
[3] = cited from earlier work
[4] = test system: PC12 pheochromocytoma cells; assay: Cytotoxicity of the individual components, parallel experiments; settings: CPA 1 μM, 25 μM, 50 nM
[5] = Yoshida ascites sarcoma in rat, Brock, 1976

Structure (SMILES) | In vitro activities: Cytotoxicity [1] [CU/μmol] | In vivo activities: CD50 [2, 5] [mg/kg] | In vivo activities: LD50 ([2]; lethal dose, rat, Brock, 1976) [mg/kg] | D50 Index (LD50/CD50) ([2]; therapeutic index, Yoshida ascites sarcoma in rat, Brock, 1976) | activity in the in vitro Yoshida cell cytotoxicity test (in words) ([1]; comment on Table II) | activity in vivo against the rat Yoshida ascites sarcoma (in words) ([2]; comment on Table II) | toxicity of circulating CPA ([3]; circulating CPA per se) | cell entry of circulating CPA ([3]; circulating CPA) | extracellular metabolism of circulating CPA ([3]; circulating CPA) | excretion of circulating CPA ([3]; via the kidneys) | cytotoxicity effects of CPA alone [4]
O=P1(N(CCCl)CCCl)NC(O)CCO1 (stereo not shown) | 63 | 1.25 | 150 | 120 |  |  |  |  |  |  | 
NP(=O)(OCCC(=O)O)N(CCCl)CCCl (stereo not shown) | 0.1 | 200 |  |  | virtually inactive | virtually inactive | not toxic per se | does not enter cells in significant amounts | is not metabolized extracellularly | normally entirely excreted from the body via the kidneys | negligible

— patent publication US5502037A, “Pro-cytotoxic drug conjugates for anticancer therapy” (priority 1993, dated 1996)
